Values quoted from earlier work as cited in US20160058751A1, “COMPOSITION AND METHOD FOR TREATING CANCER” (CELLWORKS GROUP, INC., priority 2013, published 2016).

Amino acid sequences for entries named in this document (tags omitted). Residues count along the entry.
UniProt P35918, 20-1345: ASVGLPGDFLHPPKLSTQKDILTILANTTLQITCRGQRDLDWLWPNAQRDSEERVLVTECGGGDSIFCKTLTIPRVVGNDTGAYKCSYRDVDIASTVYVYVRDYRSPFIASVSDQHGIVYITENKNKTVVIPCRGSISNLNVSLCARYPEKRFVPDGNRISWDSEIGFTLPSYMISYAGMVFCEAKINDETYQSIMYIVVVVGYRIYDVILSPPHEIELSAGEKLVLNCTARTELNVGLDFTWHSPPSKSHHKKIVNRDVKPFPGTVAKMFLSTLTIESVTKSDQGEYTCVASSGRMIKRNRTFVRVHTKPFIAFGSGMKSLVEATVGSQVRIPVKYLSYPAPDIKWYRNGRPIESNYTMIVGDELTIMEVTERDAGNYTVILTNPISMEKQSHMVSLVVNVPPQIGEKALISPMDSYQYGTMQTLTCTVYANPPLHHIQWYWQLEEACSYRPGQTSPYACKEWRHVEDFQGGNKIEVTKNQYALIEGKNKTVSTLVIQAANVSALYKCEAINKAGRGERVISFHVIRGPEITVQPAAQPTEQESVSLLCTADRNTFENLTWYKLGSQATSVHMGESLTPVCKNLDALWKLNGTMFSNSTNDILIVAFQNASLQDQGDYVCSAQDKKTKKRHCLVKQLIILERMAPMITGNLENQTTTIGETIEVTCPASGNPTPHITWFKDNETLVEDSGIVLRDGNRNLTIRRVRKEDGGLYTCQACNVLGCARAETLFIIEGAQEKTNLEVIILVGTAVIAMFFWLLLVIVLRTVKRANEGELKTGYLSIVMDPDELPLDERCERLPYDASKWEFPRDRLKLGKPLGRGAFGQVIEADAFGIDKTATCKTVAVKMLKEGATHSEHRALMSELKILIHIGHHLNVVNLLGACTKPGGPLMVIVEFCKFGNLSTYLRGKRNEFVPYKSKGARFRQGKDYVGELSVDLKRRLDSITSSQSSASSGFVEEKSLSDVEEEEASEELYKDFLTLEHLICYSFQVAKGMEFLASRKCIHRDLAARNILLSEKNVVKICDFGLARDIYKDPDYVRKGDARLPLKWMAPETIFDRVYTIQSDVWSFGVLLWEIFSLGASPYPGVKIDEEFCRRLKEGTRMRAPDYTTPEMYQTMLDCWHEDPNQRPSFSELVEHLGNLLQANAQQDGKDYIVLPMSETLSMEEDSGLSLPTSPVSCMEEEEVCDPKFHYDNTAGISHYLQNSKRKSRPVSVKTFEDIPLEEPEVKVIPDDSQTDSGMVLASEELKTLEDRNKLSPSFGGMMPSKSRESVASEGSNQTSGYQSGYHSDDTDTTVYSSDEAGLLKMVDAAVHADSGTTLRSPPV

Molecular target: mVEGFR-2 (flk-1) (Mus musculus, UniProt P35918)
Conditions: biochemical assay; cited from earlier work

CNC(=O)c1cc(Oc2ccc(NC(=O)Nc3ccc(Cl)c(C(F)(F)F)c3)cc2)ccn1 [Sorafenib, 4-[4-[[4-chloro-3-(trifluoromethyl)phenyl]carbamoylamino]phenoxy]-N-methylpyridine-2-carboxamide]
IC50: 15 nM
